The term IC50 denotes the midpoint of a concentration-inhibition curve.

Sequences of proteins named here, by UniProt entry; tags and fusion partners are left off.
UniProt P49841, whole entry, species assumed: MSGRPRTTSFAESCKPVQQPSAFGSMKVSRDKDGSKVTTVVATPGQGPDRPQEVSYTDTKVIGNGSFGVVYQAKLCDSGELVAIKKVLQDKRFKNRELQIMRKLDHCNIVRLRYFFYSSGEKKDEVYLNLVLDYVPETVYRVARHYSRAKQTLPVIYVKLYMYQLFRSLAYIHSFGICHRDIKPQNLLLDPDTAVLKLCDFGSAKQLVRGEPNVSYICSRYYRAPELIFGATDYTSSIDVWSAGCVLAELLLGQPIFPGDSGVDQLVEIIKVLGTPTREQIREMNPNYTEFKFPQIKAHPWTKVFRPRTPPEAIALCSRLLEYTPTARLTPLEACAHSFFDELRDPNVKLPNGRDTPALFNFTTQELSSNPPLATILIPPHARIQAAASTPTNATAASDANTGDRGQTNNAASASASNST

This is an account of results in patent US20080194024A1, “Culture of Non-Embryonic Cells at High Cell Density” (priority 2005, published 2008).

The test system of experiment [1] is murine low-density MAPCs.
Experiment [2] concerns Xenopus embryos. The settings on record: developmental assays; cited from earlier work.
Experiment [3] deals with GSK-3β (Homo sapiens, UniProt P49841). The settings on record: cited from earlier work.

`O=C1Nc2cc(Br)ccc2/C1=C1/Nc2ccccc2/C1=N\O` [BIO, 6-bromoindirubin-3′-oxime]: the FACS phenotype entry in experiment [1] was “not affected”. Besides, in experiment [2], the “activity in developing Xenopus embryos” value was “mimicked Wnt signaling”.
Turning to `O=C1Nc2ccccc2/C1=C1/Nc2ccccc2/C1=N\O` [Indirubin-3′-oxime], the IC50 in experiment [3] was 0.022 µM.
